Experimental findings from paper PMC7723054 are described below.

T1: LIN28A (human?, UniProt Q9H9Z2 1-209)
T1 sequence: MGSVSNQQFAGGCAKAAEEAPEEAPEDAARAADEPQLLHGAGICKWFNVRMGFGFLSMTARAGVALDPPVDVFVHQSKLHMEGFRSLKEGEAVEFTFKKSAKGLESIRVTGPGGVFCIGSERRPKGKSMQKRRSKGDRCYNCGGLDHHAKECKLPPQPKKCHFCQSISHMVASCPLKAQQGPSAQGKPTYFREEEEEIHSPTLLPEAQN

T2: CIRBP (Homo sapiens, UniProt Q14011 1-172)
T2 sequence: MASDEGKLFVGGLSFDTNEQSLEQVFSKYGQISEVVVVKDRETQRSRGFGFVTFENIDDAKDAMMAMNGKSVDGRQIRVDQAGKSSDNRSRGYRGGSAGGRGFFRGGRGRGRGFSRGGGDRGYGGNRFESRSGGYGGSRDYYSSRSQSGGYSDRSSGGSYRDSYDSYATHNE

T3: DHX36 (Homo sapiens, UniProt Q9H2U1 1-1008)
T3 sequence: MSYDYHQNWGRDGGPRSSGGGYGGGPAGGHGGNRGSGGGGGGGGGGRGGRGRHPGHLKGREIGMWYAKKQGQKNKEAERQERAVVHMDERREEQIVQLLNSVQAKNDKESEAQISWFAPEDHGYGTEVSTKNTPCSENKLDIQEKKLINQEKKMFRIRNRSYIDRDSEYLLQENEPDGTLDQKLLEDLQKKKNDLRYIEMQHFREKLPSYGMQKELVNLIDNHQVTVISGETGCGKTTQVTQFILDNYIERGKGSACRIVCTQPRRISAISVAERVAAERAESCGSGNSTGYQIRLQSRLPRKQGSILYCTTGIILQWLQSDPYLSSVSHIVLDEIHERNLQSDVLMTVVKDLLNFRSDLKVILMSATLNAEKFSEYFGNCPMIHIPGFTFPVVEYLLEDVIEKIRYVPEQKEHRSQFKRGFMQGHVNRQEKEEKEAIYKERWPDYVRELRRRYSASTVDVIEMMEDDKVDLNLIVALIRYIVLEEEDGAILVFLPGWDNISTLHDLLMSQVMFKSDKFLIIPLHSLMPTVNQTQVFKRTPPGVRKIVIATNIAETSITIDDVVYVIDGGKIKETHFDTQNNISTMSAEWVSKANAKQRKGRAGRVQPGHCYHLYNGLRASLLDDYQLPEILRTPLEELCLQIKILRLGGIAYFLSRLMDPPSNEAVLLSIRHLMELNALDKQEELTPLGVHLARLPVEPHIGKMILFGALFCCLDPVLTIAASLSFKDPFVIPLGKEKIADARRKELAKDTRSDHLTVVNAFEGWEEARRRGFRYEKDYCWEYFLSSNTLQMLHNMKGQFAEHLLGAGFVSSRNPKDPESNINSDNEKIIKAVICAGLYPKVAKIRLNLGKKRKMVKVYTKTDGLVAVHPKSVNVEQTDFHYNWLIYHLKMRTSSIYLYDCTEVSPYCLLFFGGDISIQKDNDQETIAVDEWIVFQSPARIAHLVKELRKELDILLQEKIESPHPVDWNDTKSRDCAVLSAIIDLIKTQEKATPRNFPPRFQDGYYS

B1: hsa-mir-548aa-1 (structured_RNA)
RNA: GGGAAGUUCAAGUCGGAUCAAAGUGAAUGGUGUACGAAGUUUCAGCUUUUGCCAUUACUUUUACAGGCAAAAGCUGAAGCUUCGUGCAC
B2: NEAT1_ParasoR_ID22 (structured_RNA)
RNA: GGGAAUGCAGGCUUUAGUCGCAGACUACGGUGUACGAAGUUUCAGCUAAGUGUAAUCAUACAGUAUUUGUCUUUUUGGGUCUGUCUGAUUUCACUUAGCUGAAGCUUCGUGCAC
B3: hsa-mir-4772 (structured_RNA)
RNA: GGGAACCCUUAUUGGAGGCAUACUCCGAGGUGUACGAAGUUUCAGCCAGACUGUCUUCCCAAAUAGCCUGGCUGAAGCUUCGUGCAC
B4: hsa-mir-5100 (structured_RNA)
RNA: GGGAAUUCAUAUGACCAUCGGCCUAGUUGGUGUACGAAGUUUCAGCUGGAGCUAGACCACAUGGGUUCAGCUGAAGCUUCGUGCAC
B5: hsa-mir-6088 (structured_RNA)
RNA: GGGAAACUGAAAAUGGGAAACAAGGUUUGGUGUACGAAGUUUCAGCGGGGUCUUGCUCUAUUGCUGAAGCUUCGUGCAC
B6: hsa-mir-764 (structured_RNA)
RNA: GGGAUGCUGAACGUGAAAUGAUAGGUGGGGUGUACGAAGUUUCAGCUCCUCCAUGCUUGGAAAAUGCAGGGAGGAGCUGAAGCUUCGUGCAC
B7: hsa-mir-103a-1 (structured_RNA)
RNA: GGGAGGAGCCACUAGAGCUAGUUGUUCUGGUGUACGAAGUUUCAGCGCCUUGUUGCAUAUGGAUCAAGCGCUGAAGCUUCGUGCAC
B8: hsa-mir-299 (structured_RNA)
RNA: GGGAAAUGGCCAUUGACCCUGAAGUAAAGGUGUACGAAGUUUCAGCCAUACAUUUUGAAUAUGUAUGGCUGAAGCUUCGUGCAC
B9: hsa-mir-496 (structured_RNA)
RNA: GGGAAUGGGGCGCUCCCCUCAAUAGUUGGGUGUACGAAGUUUCAGCUUCAUUUUAUUUAUGAUGAGGCUGAAGCUUCGUGCAC
B10: hsa-mir-581 (structured_RNA)
RNA: GGGAAGGGACUCAUAUAUUUGCAGCACAGGUGUACGAAGUUUCAGCCAGUGCUUUUAGAAAAUUUGUGUGGCUGAAGCUUCGUGCAC
B11: hsa-mir-1204 (structured_RNA)
RNA: GGGAAACCUAUCGAGGCGGAUAAAGACCGGUGUACGAAGUUUCAGCUUAUUUGAGAUGAGUUACAUCUUGGAGGGCUGAAGCUUCGUGCAC
B12: hsa-mir-6805 (structured_RNA)
RNA: GGGACUCUGGUCCAAGAUUAUCCCUUCUGGUGUACGAAGUUUCAGCGUGUAUGGGCUGAGCCUUGCGCUGAAGCUUCGUGCAC
B13: hsa-mir-4660 (structured_RNA)
RNA: GGGAAAGCCCGCUACUAGUUAAAGAUACGGUGUACGAAGUUUCAGCGGAGAAGACUUUUCCUUUCCUCCGCUGAAGCUUCGUGCAC
B14: hsa-mir-4429 (structured_RNA)
RNA: GGGCAGCCGCACAGCGUAUACAAGGAUCGGUGUACGAAGUUUCAGCGGCGACUGGUGUCUAAUUUGUUUGUCGCUGAAGCUUCGUGCAC
B15: hsa-mir-4666a (structured_RNA)
RNA: GGGAAUUUGACCCAUGUACGGAAGUGAAGGUGUACGAAGUUUCAGCUAUGCCUACAAAAUCCCUCCAGACUGGCAUAGCUGAAGCUUCGUGCAC
B16: hsa-mir-4788 (structured_RNA)
RNA: GGGAAGUUAGGCCCAAUAGGCUCAGAGGGGUGUACGAAGUUUCAGCAGGCAUUAGGAUCCUUAUUCUUGCCUGCUGAAGCUUCGUGCAC
B17: hsa-mir-302e (structured_RNA)
RNA: GGGAGUAGAGCUAAAUGCGUACAAUACGGGUGUACGAAGUUUCAGCUUCAGUUUCCUUACUGGUAAGCUGAAGCUUCGUGCAC
B18: hsa-mir-3186 (structured_RNA)
RNA: GGGAGCAAAAGAAGCGCCUACCUGUUGAGGUGUACGAAGUUUCAGCGUGGCUUCAACCAAGUUCAAAGUCACGCUGAAGCUUCGUGCAC
B19: hsa-mir-6724-2_6724-3_6724-1_6724-4 (structured_RNA)
RNA: GGGAGGGAGCAUAUGCGCUAGGGAAUAGGGUGUACGAAGUUUCAGCGGGCUGCCCGGGCCGGUCGACCAGCGCGCCGUAGCUCCGCUGAAGCUUCGUGCAC
B20: hsa-mir-509-2_509-3_509-1 (structured_RNA)
RNA: GGGAUUAGACGGGCCAUCGAAAUGGUUUGGUGUACGAAGUUUCAGCAUCAUGUAUAAUUAAAAAUGAUGCUGAAGCUUCGUGCAC
B21: hsa-mir-511 (structured_RNA)
RNA: GGGCAAGGCAAUGGGGCAACCAGUAAUAGGUGUACGAAGUUUCAGCCAGUCAGUAAAUAUUUUUUUGUGAAUGGCUGAAGCUUCGUGCAC
B22: hsa-mir-3923 (structured_RNA)
RNA: GGGAGCCAUUCGAUGCAUGAAGCUCACUGGUGUACGAAGUUUCAGCAGCUUCUUUAUAAGAAGAGGAAACUGCUGAAGCUUCGUGCAC
B23: hsa-mir-890 (structured_RNA)
RNA: GGGACCGCGCUGUACGGAUUACGAUUCGGGUGUACGAAGUUUCAGCGUUGCUUAGAUUACAUGUAACGCUGAAGCUUCGUGCAC
B24: hsa-mir-5093 (structured_RNA)
RNA: GGGAAAGCGAGCCAUUUCUAUCCGUGAAGGUGUACGAAGUUUCAGCUCCUGAGCUAGGAGGAUUAGGAGCUGAAGCUUCGUGCAC
B25: hsa-mir-3671 (structured_RNA)
RNA: GGGACAGUUAGGGUUCGAAAGCAAGCACGGUGUACGAAGUUUCAGCACAUGAAAAUAAAAUGUAAAUUAUUUUAUUUCUAUCAGCUGAAGCUUCGUGCAC
B26: hsa-mir-22 (structured_RNA)
RNA: GGGAAAGGCGAAGUGAAACAGUAUGAAUGGUGUACGAAGUUUCAGCGCUUUAUGUCCUGACCCAGCUAAAGCGCUGAAGCUUCGUGCAC

Some of the results follow.

One assay concerns the target T1, LIN28A. The experiment in a line: FOREST: bead pull-down of RNA structure library v1, barcode microarray; U1A/LIN28A: 20 mM HEPES pH 7.5, 80 mM KCl, 20 mM NaCl, 10% glycerol, 2 mM DTT, 0.1 ug/uL BSA, 4 C; BG4/CIRBP/DHX36: 10 mM Tris-HCl pH 7.5, 100 mM KCl (or LiCl),; high values mean tight binding.
In the case of B1, the binding signal was -0.187 z-score.
Still for that read-out and setting: the value for B2 was -0.153 z-score.
The molecule B3 showed a binding signal of -0.157 z-score.
The molecule B4 yielded a binding signal of -0.174 z-score.
Same read-out and setting: the value for B5 was -0.171 z-score; that for B6 was -0.174 z-score.
For B7, the binding signal is -0.176 z-score.
In turn, B8 came in with a binding signal of -0.134 z-score.
The molecule B9 returned a binding signal of -0.133 z-score.
On the same count and under the same terms, under B10 stands -0.162 z-score; under B11, -0.19 z-score; under B12, -0.171 z-score.
In the case of B13, the binding signal was -0.19 z-score.
Same read-out and setting: under B14 stands -0.171 z-score.
Still for that read-out and setting: the value for B15 was -0.191 z-score; that for B16 was -0.149 z-score; that for B17 was -0.177 z-score.
Molecule B18 displayed a binding signal of -0.133 z-score.
Molecule B19 yielded a binding signal of -0.178 z-score.
Consider B20, for which the binding signal was -0.176 z-score.
In turn, B21 gave a binding signal of -0.168 z-score.
The same measure, in the same setting: the value for B22 was -0.179 z-score; that for B23 was -0.184 z-score.
Regarding B24, the binding signal was -0.173 z-score.
B25 yielded a binding signal of -0.141 z-score.
As to B26, the binding signal was -0.164 z-score.

In the next assay the target is T2, CIRBP. Described as above.
In turn, B1 came in with a binding signal of 1.57 z-score.
B2 registered a binding signal of 0.543 z-score.
B3: the binding signal was 0.613 z-score.
On to B4, for which the binding signal came out at 0.0704 z-score.
In turn, B5 showed a binding signal of -0.041 z-score.
On to B6, for which the binding signal amounted to 1.41 z-score.
Turning to B7, the binding signal is -0.803 z-score.
Same read-out and setting: under B8 stands 1.53 z-score.
B9 displayed a binding signal of -0.016 z-score.
Molecule B10 gave a binding signal of 0.382 z-score.
B11 had a binding signal of 0.35 z-score.
In the case of B12, the binding signal came to 0.438 z-score.
On to B13, for which the binding signal amounted to 0.522 z-score.
For B14, the binding signal was -0.226 z-score.
With B15, the binding signal was -1.39 z-score.
Molecule B16 had a binding signal of 0.964 z-score.
As for B17, the binding signal was -0.714 z-score.
Regarding B18, the binding signal was determined as 0.297 z-score.
With B19, the binding signal was -0.226 z-score.
B20 gave a binding signal of -0.000746 z-score.
The molecule B21 yielded a binding signal of -0.00349 z-score.
Regarding B22, the binding signal was -0.714 z-score.
Consider B23, for which the binding signal was 0.135 z-score.
B24: the binding signal came to 0.145 z-score.
As to B25, the binding signal was 0.268 z-score.
The molecule B26 yielded a binding signal of -0.257 z-score.

The next assay addresses T3, DHX36. The description is as above.
B1 showed a binding signal of -0.0537 z-score.
B2: the binding signal was -1.02 z-score.
In the case of B3, the binding signal was -0.217 z-score.
On the same count and under the same terms, under B4 stands -1.05 z-score; under B5, -0.154 z-score.
As to B6, the binding signal came to 0.385 z-score.
Molecule B7 displayed a binding signal of 0.379 z-score.
On to B8, for which the binding signal is -0.224 z-score.
For the molecule B9, the binding signal worked out at 0.0363 z-score.
The molecule B10 came in with a binding signal of -0.586 z-score.
For B11, the binding signal is -0.617 z-score.
In turn, B12 came in with a binding signal of 0.0347 z-score.
Same read-out and setting: under B13 stands -1.08 z-score; under B14, 0.44 z-score; under B15, -0.0281 z-score.
Take B16: the binding signal was -0.261 z-score.
In turn, B18 displayed a binding signal of -0.0288 z-score.
B19 gave a binding signal of 0.867 z-score.
Take B20: the binding signal was -0.124 z-score.
Molecule B21 displayed a binding signal of -0.0418 z-score.
Same read-out and setting: under B22 stands -0.804 z-score; under B23, -1.04 z-score.
In turn, B24 registered a binding signal of -0.725 z-score.
Molecule B25 had a binding signal of -1.25 z-score.
On to B26, for which the binding signal was -0.525 z-score.
